# Measured affinities in a library of Ab-95 light chain variants

Target: peptide PDVDLGDISGINAS, taken from heptad repeat 2 (HR2) of SARS-CoV-2 spike.

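The library (AAYL52) carries one to three amino acid substitutions per variant, with no insertions or deletions. AlphaSeq pools MATa yeast showing the antibodies with MATalpha yeast showing the peptide. Binding brings cells together so that they mate, and sequencing counts the barcode pairs among the diploids. Each replicate has its own calibration line, from reference interactions of the BCL2 family. Each pool was mated in three replicate cultures.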

Ab-95 is the parent antibody, in scFv form: VH, then three GGGGS repeats, then VL. The heavy chain is unchanged in all variants.
VH: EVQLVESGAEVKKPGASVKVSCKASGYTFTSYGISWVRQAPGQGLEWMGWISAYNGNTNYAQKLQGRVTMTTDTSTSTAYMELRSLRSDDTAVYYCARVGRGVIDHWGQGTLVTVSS
VL: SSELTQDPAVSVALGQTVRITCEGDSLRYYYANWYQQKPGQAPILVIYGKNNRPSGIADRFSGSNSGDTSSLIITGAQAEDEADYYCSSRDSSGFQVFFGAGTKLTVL

Substitutions are numbered in sequence along the VL above, starting at 1 (not Kabat). The read-out is the apparent dissociation constant on a log10 scale (nM): the lower, the stronger. A mean of the replicates is given; it leaves out those without a signal. A pair that was not seen in that replicate is written "n.d."; this usually means weak binding, but a binder can also be missed.

changes	log10 Kd, replicates	mean, log10 nM	empty controls
Y30P V97E	3.33 / n.d. / n.d.	3.33	4/9 (3.51)
L27K Y30W K50Q	5.15 / 4.15 / 4.50	4.60	4/9 (3.71)
L27N Q96N V97R	4.80 / 3.83 / 4.58	4.40	5/9 (4.01)
Y31K G49S F98G	3.96 / 3.84 / 4.52	4.11	4/9 (4.06)
G24A Y31E K50Y	4.29 / 4.03 / n.d.	4.16	0/9
Y30L G49L D91V	n.d. / n.d. / n.d.	n.d.	1/9 (3.43)
Y30H Y31H D91V	2.66 / 2.09 / 2.67	2.48	4/9 (4.63)
E23G N33W D91P	n.d. / 5.72 / n.d.	5.72	6/9 (3.69)
P54I S88K G94N	4.14 / 4.09 / n.d.	4.12	4/9 (3.91)
D25H G49P S93Q	n.d. / 4.79 / n.d.	4.79	1/9 (3.17)
Y30K N51D S55P	2.43 / 2.12 / 2.18	2.24	7/9 (3.72)
Y30L S92D F95Q	2.64 / 2.80 / 2.55	2.66	2/9 (4.06)
S88V S89L D91L	n.d. / n.d. / n.d.	n.d.	0/9
D25M G49D G94D	n.d. / n.d. / 3.61	3.61	0/9
L27R N33E P54D	3.40 / 5.05 / n.d.	4.23	5/9 (4.08)
R28S N52E R90C	n.d. / n.d. / n.d.	n.d.	1/9 (4.16)
G49M D91V Q96K	n.d. / n.d. / 3.03	3.03	2/9 (5.29)
G24P R28N N52M	1.68 / 1.92 / 1.62	1.74	4/9 (3.48)
S26V G94P Q96Y	4.31 / 4.50 / 3.55	4.12	6/9 (3.45)
R53D S92V F95E	n.d. / n.d. / n.d.	n.d.	2/9 (3.60)
R28W Y30S A32Y	n.d. / n.d. / n.d.	n.d.	1/9 (2.63)
Y31H R90C F95C	3.05 / 3.45 / 2.36	2.95	3/9 (3.46)
A32K R53F F95S	n.d. / n.d. / 3.81	3.81	1/9 (3.75)
G94C	2.46 / 2.22 / 1.87	2.18	3/9 (3.87)
A32P D91C S92D	3.26 / 5.32 / n.d.	4.29	1/9 (3.18)
R28K Y31V S92P	2.30 / 2.47 / 2.56	2.45	1/9 (4.42)
L27N K50R	2.70 / 3.30 / 2.66	2.89	2/9 (4.11)
R28Y S55F V97F	2.82 / 2.80 / 2.28	2.64	6/9 (4.01)
K50W P54S S55M	4.21 / 3.80 / n.d.	4.00	3/9 (4.38)
K50Y S89I Q96G	3.89 / 4.20 / n.d.	4.04	3/9 (4.06)
L27D R90F	n.d. / n.d. / n.d.	n.d.	0/9
K50W S88E F98V	n.d. / n.d. / n.d.	n.d.	1/9 (3.66)
G24N S26F Y30D	3.33 / 3.39 / 3.81	3.51	4/9 (4.30)
Y31Q A32K D91H	3.76 / 3.04 / 2.97	3.25	6/9 (3.79)
Y30P N51Q S88N	2.61 / 3.36 / 3.05	3.01	0/9
G24H Y31W V97H	3.27 / 3.28 / 4.25	3.60	3/9 (3.84)
Y30F S88V Q96L	4.92 / n.d. / n.d.	4.92	0/9
S26R N52Y G94V	3.60 / 4.51 / n.d.	4.05	2/9 (3.89)
S55Y S92V	1.62 / 1.75 / 1.27	1.55	0/9
Y29W S55D Q96A	2.58 / 2.55 / 2.37	2.50	4/9 (3.88)
S26V P54T F98A	4.29 / 4.79 / 3.80	4.29	4/9 (4.35)
A32I N52H S89D	n.d. / 4.55 / n.d.	4.55	1/9 (3.44)
Y29H Y30K N33F	2.65 / 3.48 / 2.80	2.97	0/9
L27Q F98W	3.32 / 5.00 / 3.46	3.93	4/9 (3.53)
E23V S55M R90F	n.d. / n.d. / n.d.	n.d.	1/9 (3.62)
Y31S N52Q D91F	2.97 / 2.55 / 1.88	2.46	6/9 (3.52)
E23M N51S F98M	2.48 / 2.48 / 2.71	2.56	2/9 (4.71)
N51P S89Q S93W	3.81 / 4.08 / n.d.	3.95	4/9 (3.74)

Repeated from above, the 3 best binders with a signal in all replicates:

{"changes": "S55Y S92V", "log10 Kd, replicates": "1.62 / 1.75 / 1.27", "mean, log10 nM": "1.55", "empty controls": "0/9"}
{"changes": "G24P R28N N52M", "log10 Kd, replicates": "1.68 / 1.92 / 1.62", "mean, log10 nM": "1.74", "empty controls": "4/9 (3.48)"}
{"changes": "G94C", "log10 Kd, replicates": "2.46 / 2.22 / 1.87", "mean, log10 nM": "2.18", "empty controls": "3/9 (3.87)"}

For reference, the parent read 2.31 as the reference entry and 2.25 as a member of this library. Empty control strains, which show no peptide, gave a signal in 28% of pairings with library AAYL52; the median was 3.91 and 95% of these signals were weaker than 2.90. No background was subtracted. Also given: how often the same scFv was detected with the empty control strains, with their mean in brackets.

Values reported by Engelhart et al. 2022, doi:10.1038/s41597-022-01779-4 (FLAb copy).